Experiment [1] deals with SDCBP (syndecan binding protein) (Homo sapiens, UniProt O00560, F213A/K214A/T219A). Kind of experiment: SPR (Biacore X100); binding nearly lost in the mutant. On the technique in general: In SPR one partner is held on a chip, and binding of the other changes the refractive index at the surface.
In experiment [2] the target is SDCBP (syndecan binding protein) (Homo sapiens, UniProt O00560). Kind of experiment: SPR (Biacore X100, SDCBP immobilized on CM7 chip).

Chains of the proteins cited; added tags and fusions are not shown. Residues count along the entry.
UniProt O00560, 2-298 limits assumed: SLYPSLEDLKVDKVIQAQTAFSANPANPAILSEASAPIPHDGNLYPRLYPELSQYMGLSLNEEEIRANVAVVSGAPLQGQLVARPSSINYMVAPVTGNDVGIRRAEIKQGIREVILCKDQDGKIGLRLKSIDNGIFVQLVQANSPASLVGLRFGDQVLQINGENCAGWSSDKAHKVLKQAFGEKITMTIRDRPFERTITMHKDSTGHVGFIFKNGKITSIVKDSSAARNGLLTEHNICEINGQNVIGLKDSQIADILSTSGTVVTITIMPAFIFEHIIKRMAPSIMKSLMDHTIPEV
UniProt O00560, 2-298 F213A/K214A/T219A limits assumed: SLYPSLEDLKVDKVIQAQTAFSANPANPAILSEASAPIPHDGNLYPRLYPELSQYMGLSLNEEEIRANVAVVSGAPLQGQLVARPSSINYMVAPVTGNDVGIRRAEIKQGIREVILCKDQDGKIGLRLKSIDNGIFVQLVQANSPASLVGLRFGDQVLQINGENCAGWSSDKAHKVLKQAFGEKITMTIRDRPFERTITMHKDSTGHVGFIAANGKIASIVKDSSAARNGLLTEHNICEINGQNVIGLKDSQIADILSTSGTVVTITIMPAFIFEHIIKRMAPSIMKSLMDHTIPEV

By Kd is commonly meant the concentration at which binding is half-saturated.

`CC(C)c1ccc(CN(Cc2ccc(F)cc2)Cc2nc(C(=O)NCCc3ccccn3)co2)cc1`: the Kd is 1800 µM in experiment [1] and 0.63 µM in experiment [2].

For the origin of these results see PMC10352258.
